This is a selection; strong and weak results do not stand in their true shares. Some of these compounds have results that are not shown, active ones among them. The source made the active and inactive calls. Cut-off read from the data, not from the text of the source: active = inhibition above about 33%; inactive = the rest.
What follows are compounds tested against Lytic switch protein BZLF1 (Epstein-Barr virus (strain B95-8)) (UniProt P03206) (assay: Zta-DNA interaction blockers, Epstein-Barr virus – biochemical, fluorescence polarization, single concentration, counter-screen for EBNA-1 inhibitor project, primary screen (AID 2234)). Details: ZTA-DNA binding, at 11 µM, hits give high values.

By UniProt entry, the sequences of proteins in these tests, tags left out.
UniProt P03206, whole entry: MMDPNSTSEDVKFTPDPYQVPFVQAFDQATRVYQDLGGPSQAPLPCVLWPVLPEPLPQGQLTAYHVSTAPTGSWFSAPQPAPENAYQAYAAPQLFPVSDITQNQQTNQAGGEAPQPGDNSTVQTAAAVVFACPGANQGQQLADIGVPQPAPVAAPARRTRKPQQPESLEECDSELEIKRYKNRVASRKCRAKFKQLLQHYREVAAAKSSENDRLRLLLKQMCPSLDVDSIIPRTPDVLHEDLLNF

Row | SMILES | inhibition
1 | COc1cccc(C(=O)NCC2(N3CCCCC3)CCCCC2)c1 | inactive: -6.19%
2 | COc1ccc(Cl)cc1C(=O)NCC1(N(C)C)CCCCC1 | inactive: 13.4%
3 | O=C(NCC1(N2CCCCC2)CCCCC1)c1cccc(Cl)c1 | inactive: -4.81%
4 | CN(C)C1(CNC(=O)c2ccc(Br)cc2)CCCCC1 | inactive: 3.52%
5 | COc1cc(C(=O)NCC2(N(C)C)CCCCC2)c([N+](=O)[O-])cc1OC | inactive: 1.72%
6 | COc1ccc(Br)c(C(=O)NCC2(N3CCCCC3)CCCCC2)c1 | inactive: -3.59%
7 | CN(C)c1cccc(C(=O)NCC2(N(C)C)CCCCC2)c1 | inactive: -2.9%
8 | CC(C)Oc1ccc(C(=O)NCC2(N(C)C)CCCCC2)cc1 | inactive: -13.4%
9 | O=C(OC1CN2CCC1CC2)C(CO)(c1ccccc1)c1ccccc1 (centres undefined) | inactive: 8.78%
10 | CC(C)N1C(=O)CC2(CCN(CCOC(=O)C(O)(c3ccccc3)c3ccccc3)CC2)C1=O | inactive: 0.92%
11 | CCN(CC)CC(C)C(C)OC(=O)C(O)(c1ccccc1)c1ccccc1 (centres undefined) | inactive: 7.91%
12 | COc1cc(SC)ccc1C(=O)NCC1(N(C)C)CCCCC1 | inactive: -8.17%
13 | Cc1ccc(C(=O)NCC2(N3CCCCC3)CCCCC2)cc1 | inactive: 11.8%
14 | O=C(NCC1(N2CCCCC2)CCCCC1)c1cc([N+](=O)[O-])ccc1Cl | inactive: -10.6%
15 | CN1[C@@H]2CC[C@H]1CC(OC(=O)C(O)(c1ccccc1)c1ccccc1)C2 (some centres undefined) | inactive: -11.1%
16 | C=CCN1CCN(CCOC(=O)C(O)(c2ccccc2)c2ccccc2)CC1 | inactive: -3.61%
17 | O=C(NCC1(N2CCCCC2)CCCCC1)c1cc(F)c(F)cc1Cl | inactive: -7.08%
18 | CCN1CCCC(OC(=O)C2(O)c3ccccc3C=Cc3ccccc32)C1 (centres undefined) | inactive: 1.15%
19 | Cc1cc(C(=O)NCC2(N3CCCCC3)CCCCC2)ccc1[N+](=O)[O-] | inactive: -1.89%
20 | O=C(NCC1(N2CCCCC2)CCCCC1)c1cccc(Br)c1 | inactive: 8.02%
21 | COc1ccc(C(=O)NCC2(N(C)C)CCCCC2)cc1 | inactive: 0.47%
22 | Cc1ccccc1C(=O)NCC1(N2CCCCC2)CCCCC1 | inactive: 1.37%
23 | CN(C)c1ccc(C(=O)NCC2(N(C)C)CCCCC2)cc1 | inactive: -0.14%
24 | CN(C)C1CCCC1OC(=O)C(O)(c1ccccc1)c1ccccc1 (centres undefined) | inactive: 10.2%

From PubChem BioAssay AID2234 (The Scripps Research Institute Molecular Screening Center, 2010)
